Molecular target: Apoptotic protease-activating factor 1 (Homo sapiens) (UniProt O14727)
Assay: Apaf-1 inhibitor potency, dose response, fluorescence, uHTS hits (AID 588524)
Conditions: Apaf-1 apoptosome assay, fluorescence read-out

Amino acid sequences for entries named in this document (tags omitted).
UniProt O14727, whole entry: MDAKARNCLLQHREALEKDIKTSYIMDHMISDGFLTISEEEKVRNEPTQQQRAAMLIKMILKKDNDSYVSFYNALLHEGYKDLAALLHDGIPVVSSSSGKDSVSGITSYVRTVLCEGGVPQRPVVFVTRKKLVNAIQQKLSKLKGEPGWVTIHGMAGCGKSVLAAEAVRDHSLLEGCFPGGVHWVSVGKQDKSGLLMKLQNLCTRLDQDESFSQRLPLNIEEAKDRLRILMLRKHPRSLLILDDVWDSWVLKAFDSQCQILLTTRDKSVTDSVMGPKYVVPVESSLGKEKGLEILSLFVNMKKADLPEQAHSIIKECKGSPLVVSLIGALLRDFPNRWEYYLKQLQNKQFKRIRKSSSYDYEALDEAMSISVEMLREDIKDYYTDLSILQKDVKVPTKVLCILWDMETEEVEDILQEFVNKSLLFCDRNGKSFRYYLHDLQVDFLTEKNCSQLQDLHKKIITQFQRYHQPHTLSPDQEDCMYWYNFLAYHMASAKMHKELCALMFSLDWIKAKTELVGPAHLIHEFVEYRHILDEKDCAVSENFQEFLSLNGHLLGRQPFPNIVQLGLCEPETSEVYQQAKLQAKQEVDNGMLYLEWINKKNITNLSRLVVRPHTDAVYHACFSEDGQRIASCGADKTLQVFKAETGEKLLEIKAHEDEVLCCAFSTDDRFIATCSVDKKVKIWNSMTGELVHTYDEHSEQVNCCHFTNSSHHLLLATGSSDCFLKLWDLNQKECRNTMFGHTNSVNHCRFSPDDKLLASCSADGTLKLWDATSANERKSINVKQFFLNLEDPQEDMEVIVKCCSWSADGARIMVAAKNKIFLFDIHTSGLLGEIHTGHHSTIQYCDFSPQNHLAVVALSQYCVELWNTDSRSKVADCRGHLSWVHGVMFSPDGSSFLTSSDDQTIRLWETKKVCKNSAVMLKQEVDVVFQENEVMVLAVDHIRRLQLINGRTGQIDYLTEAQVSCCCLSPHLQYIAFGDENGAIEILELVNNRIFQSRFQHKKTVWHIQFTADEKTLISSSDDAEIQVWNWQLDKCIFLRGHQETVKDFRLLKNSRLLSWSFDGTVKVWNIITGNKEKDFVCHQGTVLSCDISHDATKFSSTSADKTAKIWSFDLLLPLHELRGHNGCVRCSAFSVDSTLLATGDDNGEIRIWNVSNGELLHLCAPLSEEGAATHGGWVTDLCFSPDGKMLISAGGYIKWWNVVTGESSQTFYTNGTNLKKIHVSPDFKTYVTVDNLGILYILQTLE

## CC1=C2N=C(C=C3N=C(C(C)=C4[N-][C@@](C)([C@@H]5N=C1[C@](C)(CCC(=O)NC[C@@H](C)OP(=O)([O-])O[C@H]1[C@@H](O)[C@@H](n6cnc7cc(C)c(C)cc76)O[C@@H]1CO)[C@H]5CC(N)=O)[C@@](C)(CC(N)=O)[C@@H]4CCC(N)=O)[C@@](C)(CC(N)=O)[C@@H]3CCC(N)=O)C(C)(C)[C@@H]2CCC(N)=O.[C-]#N.[Co+3]
  IC50: 443 nM
